The record followed here is US4983602A, “3'-hydroxybenzoxazinorifamycin derivative, process for preparing the same and antibacterial agent containing the same” (Kanegafuchi Kagaku Kogyo Kabushiki Kaisha, priority 1988, dated 1991).

Each structure is given as a SMILES string.

In this assay the test system is Mycobacterium tuberculosis H37 Rv. Kind of assay: Therapeutic effect on mice infected with tuberculosis, groups of 20 (FIG. 1). The following applies: oral, 200 μg/mouse once a day, six days a week; for 38 days from the beginning of the treatment.

Regarding `COC1C=COC2(C)Oc3c(C)c(O)c4c(=O)c(c5oc6cc(N7CCN(CC(C)C)CC7)cc(O)c6nc-5c4c3C2=O)NC(=O)C(C)=CC=CC(C)C(O)C(C)C(O)C(C)C(OC(C)=O)C1C` (stereo not shown) [Derivative No. 2], the dead mice entry is reported as “there was not observed any dead mouse”.
